# Most compounds without a hit are left out; they make up all but 0.62% or so of the library.
# pAkt inh – HTS Assay for Inhibitors of Akt Phophorylation: Primary Screen | activity change, % for hits at 50 µM | actives 0.32% (n = 360,000) | Neuro2A IGF-stimulated pAkt S473 HTRF, 20 min; active compounds read low; in the data active means activity change below about -80%; inconclusive means mostly about -51% to -80%
#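 Single-point screen (50 µM final compound) in Neuro2A cells stimulated 20 min with 6 nM IGF at 37 deg C. After lysis, Ser473-phosphorylated Akt read by HTRF (ex 330 nm, em 615/665 nm) as the 665/615 ratio.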
# p53 reactivator – qHTS assay for re-activators of p53 using a Luc reporter; Potency, µM (top dose mostly 92.2 µM), hits mostly activators; H1299 p53-A138V BP100-luciferase reporter, luminescence, 24 h; actives 0.063% (n = 320,000); active means well fitted activation curve with a large enough effect; inconclusive means small, poorly fitted or top-dose-only effect; inactive means no such curve, though single readings can be large or run the other way; further: nearly all actives have a fitted effect of over 45% in size
#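 H1299 (p53-null), stable ts p53-A138V + BP100-Luc; 1000 cells/well, Opti-MEM/10% FBS; cpd 4 pt, 1:5; 24 h, 37 deg C, 5% CO2; detection reagent 10 min RT; luminescence.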
# Rango-impB inh – qHTS Assay for Inhibitors of Rango (Ran-regulated importin-beta cargo) - Importin beta complex formation | actives 0.031% (n = 340,000) | AID 540263, 2011 | Rango CFP/YFP FRET sensor + importin beta, 45 min | Potency, µM (series often up to 92.2 µM); further: nearly all actives have a fitted effect of over 15% in size
#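 FRET biosensor Rango (snurportin 1 IBB between N-terminal EYFP and C-terminal Cerulean), 50 nM in PBS/1 mM DTT/0.02% Tween-20/0.1% BSA, preincubated 5 min RT with compound; 0.125 microM importin beta added, 45 min RT, CFP/YFP FRET ratio read.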
# TSHR antagonist – Antagonists of the Thyroid Stimulating Hormone Receptor: HTS campaign; activity change, negative = inhibition, % at 11.5 µM; TSHR-expressing cells, TSH-stimulated cAMP HTRF, 2 h; active compounds read low; AID 504810, 2011; actives 0.2% (n = 330,000);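 active means activity change below a set negative limit, meaning inhibition stronger than a set level, cut at about -70% in these data; inconclusive means activity change between two set negative limits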
#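 TSHR-expressing cells, 200/well, pre-treated with compound, then stimulated with EC80 TSH (4nM final) for 2 hours at 37 deg C. cAMP measured by competitive HTRF: anti-cAMP cryptate antibody in lysis buffer plus cAMP-d2, read after 30 minutes at room temperature.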
# Rango release inh – qHTS Assay for Inhibitors of RanGTP induced Rango (Ran-regulated importin-beta cargo) - Importin beta complex dissociation; Biochemical FRET Rango-importin beta, RanGTP-induced dissociation; Potency, µM (top dose mostly 46.1 µM); actives 0.071% (n = 340,000); AID 540253, 2011; further: nearly all actives have a fitted effect of over 45% in size
#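 Compounds preincubate 5 min with complex of recombinant Rango and importin beta in PBS with 1 mM DTT. Ran (0.6 uM) loaded with 2 mM GTP plus 0.2 uM RCC1 starts dissociation; FRET is recorded 45 min later.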
# Hits are given with their value; n = inactive; u = inconclusive; x = not tested or not shown; ! = repeats disagree. Unless noted, the call rests on the fitted dose curve.
SMILES,pAkt inh,p53 reactivator,Rango-impB inh,TSHR antagonist,Rango release inh
Cc1ccsc1-c1nc(CN2CCCC2c2ccc(F)cc2)c(C)o1 (configuration not stated),n,n,n,n,n
CC(=O)Nc1nc(C)c(C(C)=O)s1,-106%,n,n,n,n
CC12CC(NC(=O)N1c1cccc(C(=O)NCc3ccccc3)c1)c1ccccc1O2 (configuration not stated),x,n,x,n,x
COc1ccc(C(C(=O)NC(C)(C)C)N(CCc2ccccc2)C(=O)CCC(=O)Nc2cc(C)on2)cc1 (configuration not stated),n,n,n,-106,n
CC(C)(C)NC(=O)C(c1ccc(O)cc1)N(Cc1ccccc1)C(=O)CCC(=O)Nc1nccs1 (configuration not stated),n,n,n,-98,n
CCn1c(COc2ccc(C)cc2)nnc1SCC(=O)Nc1ccc2c(c1)OCCO2,-108%,n,n,n,n
C=CCn1c(COc2ccccc2)nnc1SCC(=O)Nc1ccc2c(c1)OCCO2,n,n,n,n,n
COc1cccc(-c2nnc(SCC(=O)Nc3ccc4c(c3)OCCO4)n2Cc2ccco2)c1,-114%,n,u,n,n
O=C1CC(SC(=S)C2CCCC2=O)C(=O)N1 (configuration not stated),n,x,x,x,x
CC1CCc2c(nc3nc[nH]n3c2=O)C1 (configuration not stated),-102%,n,n,n,n
S=c1c2c(nc3nc[nH]n13)CCC2,n,n,n,n,n
CC(NC(=O)Nc1nnc(C(F)(F)F)s1)(C(F)(F)F)C(F)(F)F,n,n,n,-94,n
O=C(CSc1nnc2c(n1)[nH]c1ccccc12)Nc1ccc2c(c1)OCO2,n,n,n,n,n
NC(=O)C(=O)N/N=C/c1c2ccccc2cc2ccccc12,n,n,n,n,15µM
CCOC(=O)C1(C)CCCN(C(=O)c2c(F)cccc2F)C1 (configuration not stated),n,x,x,x,x
Cc1ccc(S(=O)(=O)CCc2nc3ccccc3s2)cc1,-101%,n,n,n,n
Cn1c(=S)[nH]c2sc3c(c2c1=O)CCC(C(C)(C)C)C3 (configuration not stated),x,20µM,x,n,x
COCCn1c(=S)[nH]c2sc3c(c2c1=O)CCC(C)C3 (configuration not stated),n,u,n,n,n
S=c1[nH]nc(Cn2cnc3ccccc32)n1-c1ccccc1,n,n,n,n,n
CCOc1cc(C(=S)N2CCN(C)CC2)ccc1OCC(=O)N1CCOCC1,-112%,n,n,n,n
COc1ccc(CN(C)C(=O)CCN(c2ccccc2)S(=O)(=O)c2ccc(C)cc2)c(OC)c1,n,n,n,n,n
Nc1nc(SCC(=O)Nc2cc(Cl)c(Cl)cc2Cl)n[nH]1,n,n,n,-74,n
c1ccc(COc2ccc(OCCCCN3CCCC3)cc2)cc1,n,11µM,n,n,n
c1ccc(COc2cncc(-c3cccnc3)c2)cc1,n,n,n,n,n
CN(C)c1ccc(N/C=C/C(=O)C(C)(C)C)cc1,-114%,u,n,u,n
SMILES,pAkt inh,p53 reactivator,Rango-impB inh,TSHR antagonist,Rango release inh
CN(C)c1ccc(N/C=C/C(=O)c2ccccc2)cc1,n,n,u,n,n
CN1CCN(C2=CC3=CC(=C(C#N)C#N)CCC3CC2)CC1 (configuration not stated),n,n,u,-93,u
N#CC(C#N)=C1C=C2C=C(N3CCCCCC3)CCC2CC1 (configuration not stated),n,n,u,n,u
CCCN1CCN(CCCNC(=O)Cn2nc(C)n3c(cc4cc(OC)ccc43)c2=O)CC1,n,n,n,-88,n
CC(OC(=O)CCC1CCCC1)C(=O)Nc1ccccc1[N+](=O)[O-] (configuration not stated),n,n,n,n,n
Fc1ccc(C(OCCCc2cnc[nH]2)c2ccc(F)cc2)cc1,x,x,x,n,x
Cc1ccc(CNC(=O)CSc2nnc3c(n2)[nH]c2ccccc23)cc1,n,n,n,-82,n
O=C(O)Cn1c(O)c(C=Nc2ccccc2)sc1=S,-107%!,n,u,n,u
CCN(CC)CC(=O)Nc1ccccc1SCC(=O)Nc1ccsc1C(=O)OC,n,n,n,n,n
Cc1nn(C)c(C)c1S(=O)(=O)N1CCCC(C(=O)N2CCN(c3ccc(Cl)cc3)CC2)C1 (configuration not stated),-107%,n,n,n,n
Cc1[nH]c(=O)[nH]c(=O)c1S(=O)(=O)N1CCCC(C(=O)N2CCN(c3ccccc3Cl)CC2)C1 (configuration not stated),-124%,n,n,n,n
CC(C)(C)NC(=O)N1CCN(c2nc3ccc(Cl)cc3s2)CC1,n,n,n,n,n
CCOC(=O)CC1=C(C(=O)OCC)C(c2ccncc2)C(C#N)=C(N)O1 (configuration not stated),-116%,n,n,n,n
O=C(Nc1ccncc1)c1ccccc1Cl,n,n,n,n,n
COc1ccc(OC)cc1,n,n,n,n,n
COc1ccc(-n2cnnc2)cc1,-123%,n,n,n,n
O=C(Nc1ccc(Cl)cc1)c1ccc(-n2cccn2)c([N+](=O)[O-])c1,n,u,n,n,n
Cc1ccc(NC(=O)c2ccc(-n3cccn3)c([N+](=O)[O-])c2)cc1C,-110%,u,n,n,n
CCC(c1nnnn1CCOC)N(Cc1cc2cc(C)c(C)cc2[nH]c1=O)CC1CCCO1 (configuration not stated),-117%,n,u,n,n
NNC(=O)c1ccc(Cn2cccn2)o1,n,n,n,n,n
CC(C)(C)S(=O)(=O)N1C[C@@H]2CC/C=C\C/C=C\2[C@H]1CCO,n,x,n,x,n
COC(=O)c1ccc(NC(=O)N2CCOCC2)cc1,-121%,n,n,n,n
O=C(Nc1ccc(O)cc1)N1CCOCC1,n,n,n,n,n
Cc1ccc(NC(=S)N2CCN(c3nccc(C(F)(F)F)n3)CC2)c(C)c1,n,n,n,n,n
CC(C)c1ccc(NC(=O)C2CC(=O)N(C(C)C)C2)cc1 (configuration not stated),n,n,4.1µM,n,n
Cc1ccc(NC(=O)CN(C)C(=O)CNC(=O)c2cccs2)cc1,n,n,n,n,u
O=C(CCCSc1nc(-c2ccco2)cc(C(F)(F)F)n1)NCC1CCCO1 (configuration not stated),n,n,n,n,n

# Assay outcomes from PubChem.
